Legend:
[1] = biological target: KRAS-G12C/SOS1 interaction (Homo sapiens (Human), UniProt Q07889); test: Protein-Protein Interaction (PPI) assay, SOS1-KRAS binding assay kit (HTRF); settings: read-out: PPI Assay IC50, Table 1 (PPI IC50 < 100 nM), Tag1-SOS1 / Tag2-KRAS-G12C, 10 μM GTP
pERK in Hela cells = test: Phospho-ERK (p-ERK) assay in Hela cells; settings: read-out: p-ERK Assay IC50, Table 1, 1 hour with compound, β-actin normalized
Description: This Example illustrates that exemplary compounds of the present invention prevent KRas-mediated GTP nucleotide exchange mediated by SOS1 to inhibit KRas activity, thereby inhibiting the generation of the downstream effector pERK.
Hela cells (23,000/w) were seeded in a black clear flat bottom 96-well cell culture plate (Corning, #3904) and incubated at 37° C. overnight. At day 2, cells were dosed with compounds of Formula (I) with a 10 μM starting concentration and serially diluted 3× for a total of 9 concentrations. The cells were incubated for 1 hour with the compounds solubilized in DMSO at 37° C. Cells were immediately fixed by adding 100 μL of 8% formaldehyde to all wells in a fume hood and the plates were incubated for 1 hr at room temperature. The formaldehyde was discarded from the plates and washed 5 times and each time for 5 min with 200 μL of Triton Washing Solution (0.1% Triton in PBS) each time to permeabilize the cells. Cells were then blocked with 150 μL of Odyssey blocking buffer (LI-COR Biosciences #927-50010) at room temperature on a shaker. The blocking buffer was discarded and 50 μL of primary antibodies pERK (cell signaling Technology #4370; Rabbit, 1:500) and β-actin (AF5001; Mouse, 1:2000) diluted in Odyssey blocking buffer was added. […]
On day 3, the primary antibody solution was removed. […] The IC50 values were then calculated with the Graph pad Prism software. […]

Protein sequences, listed by entry. Tags and fused reporters are not part of them. Lines headed by an entry give the natural chain unless they say otherwise; changes in a name come on top.
UniProt Q07889, whole entry, stated change not applied: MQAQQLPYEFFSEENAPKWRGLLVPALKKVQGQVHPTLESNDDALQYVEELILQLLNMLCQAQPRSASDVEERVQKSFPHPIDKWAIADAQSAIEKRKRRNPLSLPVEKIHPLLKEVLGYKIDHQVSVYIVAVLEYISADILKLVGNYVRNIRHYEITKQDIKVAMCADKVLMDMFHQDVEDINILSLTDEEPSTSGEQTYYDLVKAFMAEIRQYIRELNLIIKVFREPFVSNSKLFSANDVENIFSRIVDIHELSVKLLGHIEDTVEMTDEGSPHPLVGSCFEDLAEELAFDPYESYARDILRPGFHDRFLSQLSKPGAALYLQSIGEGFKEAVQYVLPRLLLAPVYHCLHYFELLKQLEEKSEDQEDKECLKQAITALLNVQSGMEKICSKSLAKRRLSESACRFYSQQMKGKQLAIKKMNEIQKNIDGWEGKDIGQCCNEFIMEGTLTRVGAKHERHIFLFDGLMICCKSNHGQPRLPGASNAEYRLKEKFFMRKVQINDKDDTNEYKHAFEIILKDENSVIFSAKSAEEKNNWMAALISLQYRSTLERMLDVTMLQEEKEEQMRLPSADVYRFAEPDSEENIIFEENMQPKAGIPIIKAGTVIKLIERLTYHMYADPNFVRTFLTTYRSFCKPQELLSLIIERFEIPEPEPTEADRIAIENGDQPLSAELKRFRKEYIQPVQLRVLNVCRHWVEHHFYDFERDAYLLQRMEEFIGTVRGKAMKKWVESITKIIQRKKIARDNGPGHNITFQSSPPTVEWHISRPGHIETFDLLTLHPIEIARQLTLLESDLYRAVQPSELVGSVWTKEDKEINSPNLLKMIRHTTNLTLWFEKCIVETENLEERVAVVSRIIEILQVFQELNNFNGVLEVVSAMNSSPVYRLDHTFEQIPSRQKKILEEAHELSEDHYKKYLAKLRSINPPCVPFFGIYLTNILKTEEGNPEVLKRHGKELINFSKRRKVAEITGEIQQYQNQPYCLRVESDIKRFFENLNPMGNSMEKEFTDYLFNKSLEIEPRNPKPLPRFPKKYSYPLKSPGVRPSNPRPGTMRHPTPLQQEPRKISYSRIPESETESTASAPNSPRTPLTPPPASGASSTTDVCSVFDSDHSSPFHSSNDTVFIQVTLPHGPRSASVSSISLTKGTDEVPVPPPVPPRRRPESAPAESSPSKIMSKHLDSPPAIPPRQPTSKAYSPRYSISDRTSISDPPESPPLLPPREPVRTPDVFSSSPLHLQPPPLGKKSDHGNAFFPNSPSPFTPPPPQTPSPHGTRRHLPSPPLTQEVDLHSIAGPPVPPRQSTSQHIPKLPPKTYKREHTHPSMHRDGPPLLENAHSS

Row | IC50 [1] | SMILES | IC50 (pERK in Hela cells)
1 | < 100 nM | CC[C@@H]1CN(c2cc3c(N[C@H](C)c4cccc(C(F)F)c4F)ncnc3n3cnnc23)C(=O)CO1 | < 100 nM
2 | < 100 nM | C[C@@H](Nc1ncnc2c1cc(N1CCOCCC1=O)c1nncn12)c1cccc(C(F)F)c1F | < 100 nM
